The results in this text go back to US20110244058A1, “Compositions and methods for treatment of pulmonary diseases and conditions” (priority 2008, published 2011).

The assay concerns inflamed lungs of rats.

Turning to `Brc1c(NC2=NCCN2)ccc2nccnc12.O=C(O)C(O)C(O)C(=O)O` [brimonidine, 5-bromo-6-(2-imidazolin-2-ylamino)quinoxaline D-tartrate], the “final pre/post-suctioning change in resistance, saline versus brimonidine group” value (after last treatment) is recorded as “significantly greater in the saline group than the brimonidine group (P=0.006)”. For the same compound, where the note is “after the 400 and 800 μg/ml doses”, the “post-treatment resistances, saline group compared with brimonidine group” value is “significantly higher (P=0.03) in the saline group”. Besides, where the note is “any of the time points”, the “post-suctioning resistances, difference between saline and brimonidine groups” value is recorded as “not a significant difference between groups”. Moreover, the “increase in central airway resistance during post-treatment monitoring period” value (rats, aerosol 200, 400, 800 μg/ml, 10 minutes after each treatment, FIG. 4) is listed as “little increase in resistance”.
